{"source": "patent US7371739B2", "about": "“Aryl fructose-1,6-bisphosphatase inhibitors” (Metabasis Therapeutics, Inc., priority 2000, dated 2008)", "biological_target": "T1, human liver FBPase (Homo sapiens, UniProt P09467)", "T1 sequence (P09467 2-338 limits assumed)": "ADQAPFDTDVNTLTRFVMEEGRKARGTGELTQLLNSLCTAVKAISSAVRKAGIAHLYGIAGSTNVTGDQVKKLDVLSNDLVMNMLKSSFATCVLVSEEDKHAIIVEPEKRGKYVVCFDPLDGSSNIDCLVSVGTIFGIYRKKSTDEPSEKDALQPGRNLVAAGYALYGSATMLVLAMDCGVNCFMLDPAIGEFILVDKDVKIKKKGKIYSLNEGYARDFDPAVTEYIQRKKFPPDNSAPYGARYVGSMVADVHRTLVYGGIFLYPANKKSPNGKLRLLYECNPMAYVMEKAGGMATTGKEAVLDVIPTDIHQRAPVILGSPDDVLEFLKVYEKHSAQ", "assay": "Inhibition of Human Liver FBPase", "details": "read-out: Human Liver FBPase IC50; recombinant hlFBPase, 0.150 mM fructose-1,6-bisphosphate, pH 7.4, 37° C."}
{"substance": "N-(Diethylphosphonomethyl)-2-amino-3-chlorobenzamide [Compound 9.01]", "values": [{"measurement": "IC50", "value": 60, "unit": "µM"}]}
